# US11918657B2, “Dendrimer delivery system and methods of use thereof” (The Johns Hopkins University, priority 2017, dated 2024)
# Tested on: activated microglia
# Assay: Qualitative brain distribution by confocal imaging in rabbit model of cerebral palsy
# Assay type: in vivo, New Zealand white rabbits
# Conditions: CP kits PND1, 55 mg/kg i.v., 24 h post-injection
substance,measurement,value
Dextran,crossing of blood-brain-barrier (presence in periventricular region),did not cross the blood-brain-barrier
